Sequences of proteins named here, by UniProt entry; tags and fusion partners are left off.
UniProt P21917, whole entry: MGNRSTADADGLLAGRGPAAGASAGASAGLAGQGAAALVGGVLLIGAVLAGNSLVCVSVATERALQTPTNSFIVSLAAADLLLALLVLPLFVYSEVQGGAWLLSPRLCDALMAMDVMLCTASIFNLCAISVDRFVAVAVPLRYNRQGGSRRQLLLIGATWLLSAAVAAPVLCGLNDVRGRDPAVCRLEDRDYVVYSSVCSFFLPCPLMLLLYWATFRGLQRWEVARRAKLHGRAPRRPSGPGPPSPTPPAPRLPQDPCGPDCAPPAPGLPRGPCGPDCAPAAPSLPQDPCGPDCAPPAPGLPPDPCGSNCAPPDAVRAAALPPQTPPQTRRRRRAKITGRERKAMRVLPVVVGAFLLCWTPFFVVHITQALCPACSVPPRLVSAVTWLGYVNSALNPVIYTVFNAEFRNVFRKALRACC

In ChEMBL document CHEMBL1135791, “Lysergamides of isomeric 2,4-dimethylazetidines map the binding orientation of the diethylamide moiety in the potent hallucinogenic agent N,N-diethyllysergamide (LSD)” (J Med Chem, 2002):

Columns and labels:
D(4) dopamine receptor [1] = biological target: T1, D(4) dopamine receptor (Homo sapiens, UniProt P21917); assay: Binding affinity against Dopamine receptor D4
D(4) dopamine receptor [2] = biological target: T1, D(4) dopamine receptor; assay: Binding affinity towards Dopamine receptor D4

SMILES | Ki (D(4) dopamine receptor [1]) | Ki (D(4) dopamine receptor [2])
C[C@@H]1C[C@H](C)N1C(=O)[C@@H]1C=C2c3cccc4[nH]cc(c34)CC2N(C)C1 (stereo partly drawn) | 18 nM | –
C[C@@H]1C[C@@H](C)N1C(=O)[C@@H]1C=C2c3cccc4[nH]cc(c34)CC2N(C)C1 (stereo partly drawn) | – | 72 nM
C[C@H]1C[C@H](C)N1C(=O)[C@@H]1C=C2c3cccc4[nH]cc(c34)CC2N(C)C1 (stereo partly drawn) | – | 36 nM
